# Screening results (PubChem BioAssay)
# HCMV NEC inh – inhibitors of HCMV UL50-UL53 nuclear egress complex interaction; HTRF UL50-UL53 interaction, normalized percent inhibition; inhibition, % (test concentration not listed); actives 0.15% (n = 190,000); in the data active = inhibition above about 27%, passing the limit was not always enough
# GIV Gai3 FP – blocks GIV peptide binding to rat Galpha-i3; Galpha-i3/FITC-GIV peptide fluorescence polarization, 90 min; stronger effect = lower value; scaled: aluminum fluoride 0%, vehicle 100%; P08753; hit rate 0.42% among 210,000; AID 1224905; percent of control (FP), % (test concentration not listed);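 active = replicate mean at 85% of control or lower, very high polarization wells dropped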;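 also: wells of about 15 µL received 100 nL stock; the first replicate is given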
# GIV-Gai FP conf – GIV-Galpha-i3 inhibition, FP confirmation; AID 1259350; fluorescence polarization, mP at 100 µM; shares compounds with GIV Gai3 FP; FITC-GIV peptide binding to Galphai3, fluorescence polarization; active compounds read low; actives 38% (n = 580);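 active = inhibition score of 15 or more, meaning 100 minus mean polarization as percent of control over three replicates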;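 also: lower mP means peptide displaced from Galphai3 so more inhibition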
# GIV-Gai AS conf – confirmation of inhibitors of GIV binding to human Galpha-i3 | AlphaScreen Galphai3-GIV binding, purified proteins, 90 min; active compounds read low | shares compounds with GIV Gai3 FP | AlphaScreen counts at 100 µM | AID 1259351 | actives 39% (n = 580);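 active = inhibition score at or above a set limit, where the score is 100 minus the three-replicate mean percent of control signal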
# Numbers without * were called inactive; . = no result given. Most compounds without a hit are left out; they make up all but 0.46% or so of the library.
# Short keys – A = HCMV NEC inh; B = GIV Gai3 FP; C = GIV-Gai FP conf; D = GIV-Gai AS conf
1. CCOC(=O)C1=NN(c2cccc(Cl)c2)C2(S1)SC(c1ccc(Br)cc1)(c1ccc(Br)cc1)c1ccccc12 (stereo not given)
  A = . | B = 107.3 | C = . | D = .
2. COc1ccc(Nc2c3c4c(cccc4n(C)c2=O)C(=O)c2ccccc2-3)cc1
  A = . | B = 103.3 | C = . | D = .
3. CCOc1ccc(Nc2c3c4c(cccc4[nH]c2=O)C(=O)c2ccccc2-3)cc1
  A = -30.0 | B = 32.1* | C = 28* | D = 39358
4. O=C(Cn1c(=O)c2ccccc2n2c(=S)sc(-c3ccc(Br)cc3)c12)N1CCCC1
  A = -18.7 | B = 94.4 | C = . | D = .
5. CCN(CC)C(=O)Cn1c(=O)c2ccccc2n2c(=S)sc(-c3ccccc3F)c12
  A = -41.4 | B = 121.5 | C = . | D = .
6. CCN(CC)C(=O)Cn1c(=O)c2ccccc2n2c(=S)sc(-c3ccc(Br)cc3)c12
  A = -28.8 | B = 100.2 | C = 93.7 | D = 27284
7. O=C(Cn1c(=O)c2ccccc2n2c(=S)sc(-c3ccccc3)c12)NCC1CCCO1 (stereo not given)
  A = -16.0 | B = 77.8* | C = 71.5 | D = 23082
8. Cc1nc(N)oc1C(O)c1ccccc1 (stereo not given)
  A = -17.7 | B = 106.8 | C = . | D = .
9. CCOc1cc2[nH]c(=O)n(CCCCC(=O)N3CCN(c4ccccc4OC)CC3)c(=O)c2cc1OCC
  A = . | B = 108.2 | C = . | D = .
10. O=C(Cc1ccccc1)N/N=C1/CCS(=O)(=O)c2ccc(F)cc21
  A = -39.2 | B = . | C = . | D = .
11. Cc1nn(C(=O)CCC(=O)N2CC(C)CC(C)C2)c2ccccc12 (stereo not given)
  A = -18.6 | B = 101.3 | C = . | D = .
12. CCOC(=O)c1cn[nH]c1S(=O)(=O)N1c2ccccc2CC1C (stereo not given)
  A = -9.7 | B = 101.5 | C = . | D = .
13. COc1ccc(-c2nc3ccc(C(=O)N4CCN(c5ccccc5)CC4)cc3nc2-c2ccc(OC)c(OC)c2)cc1OC
  A = . | B = 102.3 | C = . | D = .
14. CCOC(=O)N1CCN(C(=O)c2ccc3nc(-c4ccc(OC)c(OC)c4)c(-c4ccc(OC)c(OC)c4)nc3c2)CC1
  A = . | B = 84.4* | C = 65.1 | D = 50289
15. O=C(Nc1nnc(S(=O)(=O)N2CCCc3ccccc32)s1)c1cccc(Cl)c1
  A = -25.3 | B = 100.5 | C = . | D = .
16. CCOc1ccc(S(=O)(=O)/N=C2/C=C(Sc3ncn[nH]3)C(=O)c3ccccc32)cc1
  A = 21.1 | B = 11.3* | C = 31.8* | D = 6312*
17. O=C(O)C(Sc1ncn[nH]1)c1ccccc1 (stereo not given)
  A = -17.7 | B = . | C = . | D = .
18. O=S(=O)(Nc1cc(Sc2ncn[nH]2)c(O)c2ccccc12)c1cccs1
  A = -0.8 | B = 105.2 | C = . | D = .
19. O=C1C(Sc2ncn[nH]2)=C/C(=N/S(=O)(=O)c2cccs2)c2ccccc21
  A = 51.3* | B = 18.3* | C = 39.8* | D = 4995*
20. O=C1C(Sc2ncn[nH]2)=C/C(=N/S(=O)(=O)c2ccc(F)cc2)c2ccccc21
  A = 2.4 | B = 3.7* | C = 36.1* | D = 5053*
21. CCOc1ccc(CSc2ncn[nH]2)cc1
  A = -4.5 | B = 98.9 | C = . | D = .
22. Cn1c(=O)c(-c2ccccc2)c2c3c(cccc31)C(=O)c1ccccc1-2
  A = . | B = 109.7 | C = . | D = .
23. Cn1c(=O)c(C(=O)CS(=O)(=O)O)c2c3c(cccc31)C(=O)c1ccccc1-2
  A = . | B = 55.3* | C = 22.4* | D = 7785*
24. Cc1csc(=O)n1CCN(C)CC(=O)Nc1ccc(Cl)c(C(F)(F)F)c1
  A = 0.6 | B = . | C = . | D = .
25. O=C(O)c1cc(NS(=O)(=O)c2cc(F)ccc2F)ccc1N1CCN(c2ccc(F)cc2)CC1
  A = -31.0 | B = 104.6 | C = . | D = .

# Sorted by length of the SMILES (ascending): four of the compounds above
# Short keys – A = HCMV NEC inh; B = GIV Gai3 FP; C = GIV-Gai FP conf; D = GIV-Gai AS conf
11. Cc1nn(C(=O)CCC(=O)N2CC(C)CC(C)C2)c2ccccc12 (stereo not given)
  A = -18.6 | B = 101.3 | C = . | D = .
5. CCN(CC)C(=O)Cn1c(=O)c2ccccc2n2c(=S)sc(-c3ccccc3F)c12
  A = -41.4 | B = 121.5 | C = . | D = .
25. O=C(O)c1cc(NS(=O)(=O)c2cc(F)ccc2F)ccc1N1CCN(c2ccc(F)cc2)CC1
  A = -31.0 | B = 104.6 | C = . | D = .
9. CCOc1cc2[nH]c(=O)n(CCCCC(=O)N3CCN(c4ccccc4OC)CC3)c(=O)c2cc1OCC
  A = . | B = 108.2 | C = . | D = .

# (next part)
# Short keys – A = HCMV NEC inh; B = GIV Gai3 FP; C = GIV-Gai FP conf; D = GIV-Gai AS conf
26. O=C(O)c1cc(NS(=O)(=O)c2cc(F)ccc2F)cnc1N1CCOCC1
  A = -9.7 | B = 56.8* | C = 32.6* | D = 29995
27. CCOc1ccc(NC(=O)c2ccc3c(=O)n(-c4cc(OC)ccc4OC)c(=S)[nH]c3c2)cc1
  A = . | B = 100.1 | C = . | D = .
28. CCc1cccc(NC(=O)c2cc3c(=O)n(Cc4ccc(OC)cc4)ccc3nc2C)c1
  A = . | B = 88.5 | C = 78.9 | D = 34190
29. COc1ccc(Cn2ccc3nc(C)c(C(=O)Nc4cc(OC)cc(OC)c4)cc3c2=O)cc1
  A = -18.8 | B = 103.8 | C = . | D = .
30. Nc1c(C(=O)N2CCc3ccccc32)sc2nc(C(F)(F)F)c3c(c12)CCCC3
  A = . | B = 94.6 | C = 74.6 | D = 39316
31. O=C(c1sc2ccccc2c1Cl)N1CCc2ccccc21
  A = 5.4 | B = . | C = . | D = .
32. O=C(NC1CCCCC1)c1sc(=S)n2c1[nH]c(=O)c1ccccc12
  A = -42.9 | B = 100.5 | C = . | D = .
33. O=C(NCCc1ccccc1)c1sc(=S)n2c1[nH]c(=O)c1ccccc12
  A = . | B = 86.4 | C = 65 | D = 13551*
34. O=C(Cn1c(=O)[nH]c2c(-c3ccccc3)c[nH]c2c1=O)NC1CCCCC1
  A = -8.8 | B = 99.0 | C = . | D = .
35. NC(=O)CSc1nc2c(c(=O)n1CCc1ccccc1)C1(CCCCC1)Cc1ccccc1-2
  A = . | B = 104.5 | C = . | D = .
36. O=C(O)c1cc2c3c(c1)C1C=CCC1C(c1ccc(F)cc1)N3CC1CC=CC21 (stereo not given)
  A = 4.6 | B = 98.5 | C = . | D = .
37. O=C(O)c1cc2c3c(c1)C1C=CCC1C(c1ccccc1F)N3CC1CC=CC21 (stereo not given)
  A = -18.9 | B = 74.1* | C = 21.2* | D = 3685*
38. O=C(O)c1cc2c3c(c1)C1C=CCC1C(c1ccccc1)N3CC1CC=CC21 (stereo not given)
  A = 8.7 | B = 81.4* | C = 47.1* | D = 7304*
39. O=C(O)c1cc2c3c(c1)C1C=CCC1C(c1cccc([N+](=O)[O-])c1)N3CC1CC=CC21 (stereo not given)
  A = -7.0 | B = 100.5 | C = . | D = .
40. C=CCNC(=O)CN1CCN(C)CC1
  A = 7.9 | B = 96.6 | C = . | D = .
41. COc1ccc(-c2ccc3cc(Cl)ccc3n2)c(OC)c1
  A = -24.5 | B = . | C = . | D = .
42. CCN(CC)CCCC(C)Nc1c2ccc(Cl)cc2nc2ccc(OC)cc12 (stereo not given)
  A = -61.7 | B = 43.6* | C = 41.1* | D = 32214
43. Cc1cc(C)c(C#N)c(SCC(=O)c2c(C)[nH]c3ccccc23)n1
  A = -6.1 | B = . | C = . | D = .
44. N#Cc1ccsc1NC(=O)CSc1ccccn1
  A = -33.1 | B = . | C = . | D = .
45. Cn1c(C(=O)NCc2ccccc2F)cc2cc(S(=O)(=O)N3CCCCC3)ccc21
  A = . | B = 89.4 | C = 79.4 | D = 33586
46. CCOc1ccccc1CNC(=O)c1cc2cc(S(=O)(=O)N3CCCCC3)ccc2n1C
  A = . | B = 98.1 | C = . | D = .
47. O=C(O)CCCc1nc(-c2ccccn2)no1
  A = -18.3 | B = 97.1 | C = . | D = .
48. CCC(SC1=NS(=O)(=O)c2ccccc2N1)C(=O)Nc1ccccc1F (stereo not given)
  A = . | B = 111.9 | C = . | D = .
49. CCOc1cc(C(c2c(C)[nH]n(-c3ccccc3)c2=O)c2c(C)[nH]n(-c3ccccc3)c2=O)ccc1OCc1ccc(Cl)cc1
  A = . | B = 80.6* | C = 52.4* | D = 31576
50. Cc1[nH]n(-c2ccccc2)c(=O)c1C(c1cc(Cl)ccc1O)c1c(C)[nH]n(-c2ccccc2)c1=O
  A = -22.9 | B = 100.3 | C = . | D = .
51. CCOc1cc(C(c2c(C)[nH]n(-c3ccccc3)c2=O)c2c(C)[nH]n(-c3ccccc3)c2=O)ccc1O
  A = 39.8 | B = 112.8 | C = . | D = .
52. COc1ccc(C(c2c(C)[nH]n(-c3ccccc3)c2=O)c2c(C)[nH]n(-c3ccccc3)c2=O)cc1OC
  A = . | B = 76.3* | C = 44.4* | D = 4694*
53. Cc1ccc(C(c2c(C)[nH]n(-c3ccccc3)c2=O)c2c(C)[nH]n(-c3ccccc3)c2=O)cc1
  A = . | B = 106.9 | C = . | D = .
54. COc1ccc(C(c2c(C)[nH]n(-c3ccccc3)c2=O)c2c(C)[nH]n(-c3ccccc3)c2=O)cc1
  A = . | B = 90.6 | C = . | D = .
55. Cc1[nH]n(-c2ccccc2)c(=O)c1C(c1ccc(F)cc1)c1c(C)[nH]n(-c2ccccc2)c1=O
  A = . | B = 72.0* | C = 61.1 | D = 24882*
56. Cc1[nH]n(-c2ccccc2)c(=O)c1C(c1ccccc1O)c1c(C)[nH]n(-c2ccccc2)c1=O
  A = . | B = 67.0* | C = 64.1 | D = 17967*
